We go through 7 substances from US20210283220A1, “ANTIBODY MOLECULE-DRUG CONJUGATES AND USES THEREOF” (priority 2017, published 2021).

Bounds are passed on as bounds.

Series [1] concerns red blood cells. The experiment in a line: Red blood cell hemolysis assay (PLC, MLC). The conditions noted are these: for PLC: partial lytic concentration, hemolytic activity. The class given is cell-based.
Series [2] concerns 293T cells. The experiment in a line: Cytotoxicity, cell viability using 293T cells. Format: cell-based.

For the substance ALWKTLLKKVLKAAAKGGGGSGGGGS [peptide 30], the PLC in series [1] turned out to be 512 µg/mL.
“GAFGNFLKGVAKKAGLKILSIAQCKLFGTC [peptide 70]” had a PLC in series [1] of 8 µg/mL.
For the substance “GGG-D-Dab-cyclic(L-Dab-L-Dab-D-Leu-L-Phe-L-Dab-L-Dab-L-Leu) [GGG-Octapeptin]”, in series [1] (concentration that led to 50% red blood cell lysis), the “Hemolysis PLC” value was greater than 128 µg/mL. For the same substance, the “Hemolysis MLC” value in series [1] (concentration that led to 100% red blood cell lysis) was greater than 128 µg/mL. Also, in series [1] (ratio), the “Hemolysis MLC/MIC” value is listed as greater than 64 and the “Hemolysis PLC/MIC” value is on record as greater than 64.
As for “GGGGRFKRFRKKFKKLFKKLSPVIPLLHLG [Peptide P295]”, the Cytotoxicity in series [2] was 100 µg/mL.
In turn, “GGGKFFRKLKKSVKKRAKEFFKKPRVIGVSIPF [Peptide P297]” came in with a Cytotoxicity in series [2] greater than 1000 µg/mL.
“GIGKFLKKAKKFGKAFVKILKKGGGGSGGGGS [peptide 24]” displayed a PLC in series [1] of 512 µg/mL.
In series [1], KKLLKWLKKLL [peptide 126] displayed a PLC of 640 µg/mL.
